{
  "sequences": {"note": "Chains of the proteins cited; added tags and fusions are not shown.", "UniProt P08173, whole entry": "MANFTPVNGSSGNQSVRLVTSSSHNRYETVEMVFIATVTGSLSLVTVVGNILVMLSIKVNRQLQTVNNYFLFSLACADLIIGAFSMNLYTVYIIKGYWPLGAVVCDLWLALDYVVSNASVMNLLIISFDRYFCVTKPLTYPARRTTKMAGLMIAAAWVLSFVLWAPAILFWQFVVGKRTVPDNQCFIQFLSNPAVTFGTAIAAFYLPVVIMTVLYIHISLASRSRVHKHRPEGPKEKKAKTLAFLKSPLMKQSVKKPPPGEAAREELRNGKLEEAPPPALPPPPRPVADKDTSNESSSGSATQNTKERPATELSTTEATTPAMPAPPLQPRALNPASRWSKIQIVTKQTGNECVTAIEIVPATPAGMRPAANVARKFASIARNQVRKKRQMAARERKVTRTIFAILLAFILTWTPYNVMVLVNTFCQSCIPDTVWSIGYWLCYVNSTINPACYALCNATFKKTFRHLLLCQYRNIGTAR"},
  "source": "patent US11319298B2",
  "about": "(Merck Sharp & Dohme Corp., priority 2016, dated 2022)",
  "molecular_target": "human M4 muscarinic acetylcholine receptor (Homo sapiens, UniProt P08173)",
  "experiment": "human FLIPR-based M4 PAM assay, CHO-K1 cells stably transfected with human M4 receptor and chimeric G-protein Gαqi5",
  "settings": "read-out: M4 PAM IP; inflection point (IP) of dose response curve; acetylcholine added at 20% of maximum response; CHO-K1 human M4/Gαqi5, FLIPR Tetra",
  "protocol": "In a typical experiment the M4 muscarinic acetylcholine receptor modulating activity of the compounds of the present invention was determined in accordance with the following experimental method. CHO-K1 cells stably transfected with human M4 receptor and chimeric G-protein Gαqi5 (Coward P, et al., Analytical Biochemistry, 270:242-248 (1999)) are thawed from liquid N2 storage, resuspended in growth medium, plated in black, clear bottom 384 well plates, and incubated 16-20 hours at 37° C., 5% CO2. On the day of assay, growth medium is removed, the cells are washed 2 times with wash buffer, and cells are incubated in dye loading buffer at 37° C., 5% CO2 for ˜1 hour. Following dye loading the cell plates are placed in a FLIPR Tetra instrument and while monitoring dye fluorescence (excitation […]), 10 uL of test substance at increasing concentrations is added, and fluorescence values are recorded for 4 min. Next, 10 uL of acetylcholine is added (final concentration calculated so as to achieve 20% of the maximum acetycholine response), and the fluorescence reading is continued for 3.5 min. In some cases, a third addition of acetylcholine (final concentration calculated to achieve 70% of the maximal acetylcholine response) is performed. […]",
  "data": [
    {"smiles": "COc1ccc(OC2CCN(c3ncc(C(=O)NCc4ccncc4)cc3C)CC2)cn1", "values": [
      {"measurement": "EC50", "result": 208, "unit": "nM"}
    ]}
  ]
}
